This note sets out measurements from patent publication US20260384433A1, “PYRIDAZINE FUSED ARYL RING COMPOUND AND USE THEREOF” (published 2026).

Assay [1] concerns J774A.1 cells. In words: Anti-pyroptosis activity assay in J774A.1 cells (nigericin-induced, CCK-8). The settings on record: read-out: EC50 (anti-pyroptosis activity), nigericin 4 h.
Assay [2] relates to human IL-1β. Description: In-vitro THP-1 cell (IL-1β) expression assay. The settings on record: THP-1 cells, LPS 100 ng/mL, nigericin.

Broadly, the EC50 is the concentration at which the effect is half-maximal. As for `CN1CCC[C@@H](Nc2nnc(-c3ccc(C(F)(F)F)cc3O)n3cccc23)C1`, the concentration for a half-maximal effect (EC50) in assay [1] was under 100 nM. For the same compound, the “% inhibition of IL-1β expression” value in assay [2] (compound 1 nM) and in assay [2] (compound 10 nM) was “A (% inhibition≥50)” each time.

With `C#Cc1ccc(-c2nnc(NC3CCCN(C)C3)c3cccn23)c(O)c1` (stereo not shown), in assay [1], the EC50 is under 100 nM. Moreover, the “% inhibition of IL-1β expression” value in assay [2] (compound 1 nM), in assay [2] (compound 10 nM) and in assay [2] (compound 100 nM) was “A (% inhibition≥50)” in each case.

As to `Oc1cc(C(F)(F)F)ccc1-c1nnc(N[C@@H]2COC[C@@H]2O)c2c3c(cn12)CCC3`, the EC50 in assay [1] is 100 to 1000 nM.

As to `CS(=O)(=O)N1CCC[C@@H](Nc2nnc(-c3ccc(C(F)(F)F)cc3O)n3cccc23)C1`, the half-maximal effective concentration (EC50) in assay [1] was in the range of 100 to 1000 nM.

In the case of `CN1CCC[C@@H](Nc2nnc(-c3ccc(C(F)(F)F)cc3O)n3c2cc2sccc23)C1`, the EC50 in assay [1] is 100 to 1000 nM. For the same compound, the results for the “% inhibition of IL-1β expression” value in assay [2] (compound 1 nM), in assay [2] (compound 10 nM) and in assay [2] (compound 100 nM) were “B (10≤% inhibition<50)”, “B (10≤% inhibition<50)” and “A (% inhibition≥50)”, respectively.

In the case of `C=Cc1ccc(-c2nnc(N[C@@H]3CCCN(C)C3)c3cccn23)c(O)c1`, the “% inhibition of IL-1β expression” value in assay [2] (compound 1 nM), in assay [2] (compound 10 nM) and in assay [2] (compound 100 nM) was “A (% inhibition≥50)” in each case.

For `CN1CCC[C@@H](Nc2nnc(-c3ccc(C(F)(F)F)cc3O)c3cc4c(n23)CCC4)C1`, the EC50 in assay [1] is 100 to 1000 nM. Further, the “% inhibition of IL-1β expression” value in assay [2] (compound 1 nM) is reported as “B (10≤% inhibition<50)”; in assay [2] (compound 10 nM), “B (10≤% inhibition<50)”; in assay [2] (compound 100 nM) it was “A (% inhibition≥50)”.

Take `C[C@]1(O)C[C@@H](Nc2nnc(-c3ccc(C(F)(F)F)cc3O)n3cccc23)C1`: the EC50 in assay [1] fell in the range of 100 to 1000 nM.

Regarding `CN1CCC[C@@H](Nc2nnc(-c3ccc(Cl)cc3O)n3cccc23)C1`, in assay [1], the EC50 is under 100 nM.

Turning to `CN1CCC[C@@H](Nc2nnc(-c3ccc(C(F)(F)F)cc3O)n3cc4c(c23)CCC4)C1`, the EC50 in assay [1] is under 100 nM. The “% inhibition of IL-1β expression” value in assay [2] (compound 1 nM) is “B (10≤% inhibition<50)”; in assay [2] (compound 10 nM), “A (% inhibition≥50)”; in assay [2] (compound 100 nM) it was “A (% inhibition≥50)”.

Turning to `CN1CCC[C@@H](Nc2nnc(-c3ccc(C(F)(F)F)cc3O)c3cc4sccc4n23)C1`, the concentration giving a half-maximal response (EC50) in assay [1] was under 100 nM. Moreover, the figures for the “% inhibition of IL-1β expression” value in assay [2] (compound 1 nM), in assay [2] (compound 10 nM) and in assay [2] (compound 100 nM) were “B (10≤% inhibition<50)”, “B (10≤% inhibition<50)” and “A (% inhibition≥50)”, respectively.

Take `Oc1cc(C(F)(F)F)ccc1-c1nnc(N[C@@H]2CCCC[C@H]2O)c2c3c(cn12)CCC3`: the 50% effective concentration (EC50) in assay [1] is under 100 nM.

`Oc1cc(C(F)(F)F)ccc1-c1nnc(N[C@@H]2COC[C@H]2O)c2c3c(cn12)CCC3`: the EC50 in assay [1] was 100 to 1000 nM.

As to `O=S(=O)(C1CC1)N1CCC[C@@H](Nc2nnc(-c3ccc(C(F)(F)F)cc3O)n3cccc23)C1`, in assay [1], the EC50 lay within 100 to 1000 nM.

As to `CN1CCC[C@@H](Nc2nnc(-c3ccc(C(F)(F)F)cc3O)c3c4c(cn23)CCC4)C1`, the EC50 in assay [1] fell in the range of 100 to 1000 nM. The “% inhibition of IL-1β expression” value is “B (10≤% inhibition<50)” in assay [2] (compound 1 nM), “B (10≤% inhibition<50)” in assay [2] (compound 10 nM) and “A (% inhibition≥50)” in assay [2] (compound 100 nM).

As for `Oc1cc(Cl)ccc1-c1nnc(N[C@@H]2COC[C@H]2O)c2c3c(cn12)CCC3`, the concentration for a half-maximal effect (EC50) in assay [1] lay in the range of 100 to 1000 nM.

Take `NS(=O)(=O)N1CCC[C@@H](Nc2nnc(-c3ccc(C(F)(F)F)cc3O)n3cccc23)C1`: in assay [1], the EC50 is under 100 nM.

Regarding `CS(=N)(=O)N1CCC[C@@H](Nc2nnc(-c3ccc(C(F)(F)F)cc3O)n3cccc23)C1` (stereo partly shown), the EC50 in assay [1] lay in the range of 100 to 1000 nM.
